Experiments:
[1] = Stability if the compound in PBS buffer at pH 7.4 at 1 mg/ml measured upto 8 hrs by UHPLC analysis; conditions: pH 7.4, 8 h
[2] = Stability if the compound in deionized water at 1 mg/ml measured upto 8 hrs by UHPLC analysis; conditions: buffer
[3] = Dissociation constant, pKa of the compound by spectrophotometric analysis
[4] = target: Acetylcholinesterase (Homo sapiens, UniProt P22303); assay: Inhibition of human recombinant AChE using acetylthiocholine iodide as substrate by Ellman's method

The chains behind the UniProt entries cited, without tags or fusion partners. Residues count along the entry.
UniProt P22303, 32-614 limits assumed: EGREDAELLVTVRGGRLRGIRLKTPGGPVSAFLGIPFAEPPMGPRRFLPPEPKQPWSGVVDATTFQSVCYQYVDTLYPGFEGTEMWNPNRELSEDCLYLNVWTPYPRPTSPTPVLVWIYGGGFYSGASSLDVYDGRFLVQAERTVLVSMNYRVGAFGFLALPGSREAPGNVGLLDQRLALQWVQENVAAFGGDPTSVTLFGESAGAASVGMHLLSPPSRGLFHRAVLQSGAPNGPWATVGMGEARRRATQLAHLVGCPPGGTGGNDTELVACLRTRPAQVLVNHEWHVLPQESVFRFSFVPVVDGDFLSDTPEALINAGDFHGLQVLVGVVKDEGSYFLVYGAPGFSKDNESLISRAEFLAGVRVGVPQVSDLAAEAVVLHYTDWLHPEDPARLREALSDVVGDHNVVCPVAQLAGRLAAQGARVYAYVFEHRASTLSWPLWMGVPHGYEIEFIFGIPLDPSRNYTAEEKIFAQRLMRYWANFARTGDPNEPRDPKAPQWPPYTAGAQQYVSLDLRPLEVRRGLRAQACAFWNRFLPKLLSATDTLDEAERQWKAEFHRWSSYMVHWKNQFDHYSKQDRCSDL

## C[n+]1c(Cl)cccc1/C=N/O.O=S(=O)([O-])C(F)(F)F
[1]
  Stability: Unstable

## C[n+]1cccc(F)c1/C=N/O.[I-]
[2]
  Stability: Unstable
[3]
  pKa: 8.04
[1]
  Stability: Unstable

## C[n+]1ccc(Br)cc1/C=N/O.O=S(=O)([O-])C(F)(F)F
[1]
  Stability: < 20%

## C[n+]1cc(F)ccc1/C=N/O.[I-]
[2]
  Stability: Stable
[3]
  pKa: 7.95
[1]
  Stability: Stable

## C[n+]1cc(Br)ccc1/C=N/O.[I-]
[2]
  Stability: Stable
[3]
  pKa: 7.9
[1]
  Stability: Stable

## C[n+]1cccc(Cl)c1/C=N/O.[I-]
[2]
  Stability: Unstable
[3]
  pKa: 7.97
[1]
  Stability: Unstable

## C[n+]1ccc(F)cc1/C=N/O.O=S(=O)([O-])C(F)(F)F
[1]
  Stability: 70%

## C[n+]1cc(Cl)ccc1/C=N/O.[I-]
[2]
  Stability: Stable
[3]
  pKa: 7.8
[1]
  Stability: Stable

## C[n+]1cccc(Br)c1/C=N/O.[I-]
[2]
  Stability: Unstable
[3]
  pKa: 8.1
[1]
  Stability: Unstable

## C[n+]1ccc(Cl)cc1/C=N/O.O=S(=O)([O-])C(F)(F)F
[1]
  Stability: < 20%

## C[n+]1cc(Br)ccc1/C=N/O
[4]
  IC50: 58.5 µM
